Laboratory results from patent US20230015478A1, “GLP-1 RECEPTOR AGONISTS HAVING IMPROVED PHARMACOLOGICAL AND DRUG DELIVERY PROPERTIES” (priority 2021, published 2023).
Where two headings read alike, the source gives them in different places.

Protein sequences, listed by entry. Tags and fused reporters are not part of them. Residues count along the entry.
UniProt P43220, 24-463: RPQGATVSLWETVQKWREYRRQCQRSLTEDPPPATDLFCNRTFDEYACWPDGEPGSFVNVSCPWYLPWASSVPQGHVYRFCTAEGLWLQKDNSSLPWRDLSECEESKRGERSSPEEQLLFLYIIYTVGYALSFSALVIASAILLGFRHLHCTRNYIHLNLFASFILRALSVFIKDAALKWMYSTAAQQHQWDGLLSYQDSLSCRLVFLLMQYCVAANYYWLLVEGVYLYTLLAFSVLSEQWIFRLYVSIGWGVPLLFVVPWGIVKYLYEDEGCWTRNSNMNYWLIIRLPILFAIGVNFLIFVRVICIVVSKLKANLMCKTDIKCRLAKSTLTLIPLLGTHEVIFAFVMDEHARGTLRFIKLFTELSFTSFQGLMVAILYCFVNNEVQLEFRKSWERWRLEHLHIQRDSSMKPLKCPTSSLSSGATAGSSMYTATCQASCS

Molecular target: T1, hGLP1 receptor (Homo sapiens, UniProt P43220)
T1 construct: expressed in transfected cells; host or cells: HEK (human embryonic kidney) cells co-expressing hGLP1 receptor and CRE-Luciferase
Test: cAMP HTRF agonist assay in HEK cells co-expressing hGLP1 receptor and CRE-Luciferase
Type: cell-based
Conditions: Table 6

Substance	EC50 (read-out: cAMP EC50, nM (0.1% albumin), 0.1% albumin) [nM]	EC50 (cells marked (0% albumin), read-out: cAMP EC50, nM (0% albumin)) [nM]
H2N-His-Aib-Glu-Gly-Thr-α-MePhe(2-F)-Thr-Ser-Asp-Bip-Bip-C(O)NH-RY7 [4-45]	100	
H2N-His-α-MePro-Glu-Gly-Thr-α-MePhe(2F)-Thr-Ser-Asp-α-MeBip-Bip-C(O)NH2 [4-72-i1]		0.2
